Assay results taken from PubChem BioAssay AID624170 (National Center for Advancing Translational Sciences (NCATS), 2012).
The entries are a selection whose mix differs from that of the whole data set. Records with an inconclusive call do not appear. Some salts or complexes appear as unconnected parts, following the source record. Calls of active or inactive are those of the source. The call rests on the fitted dose curve; in most records, active means well fitted inhibition curve with a large enough effect; inconclusive means small, poorly fitted or top-dose-only effect, or another doubt; inactive means no such curve, though single readings can be large or run the other way.

Chains of the proteins cited; added tags and fusions are not shown.
UniProt O94925, whole entry: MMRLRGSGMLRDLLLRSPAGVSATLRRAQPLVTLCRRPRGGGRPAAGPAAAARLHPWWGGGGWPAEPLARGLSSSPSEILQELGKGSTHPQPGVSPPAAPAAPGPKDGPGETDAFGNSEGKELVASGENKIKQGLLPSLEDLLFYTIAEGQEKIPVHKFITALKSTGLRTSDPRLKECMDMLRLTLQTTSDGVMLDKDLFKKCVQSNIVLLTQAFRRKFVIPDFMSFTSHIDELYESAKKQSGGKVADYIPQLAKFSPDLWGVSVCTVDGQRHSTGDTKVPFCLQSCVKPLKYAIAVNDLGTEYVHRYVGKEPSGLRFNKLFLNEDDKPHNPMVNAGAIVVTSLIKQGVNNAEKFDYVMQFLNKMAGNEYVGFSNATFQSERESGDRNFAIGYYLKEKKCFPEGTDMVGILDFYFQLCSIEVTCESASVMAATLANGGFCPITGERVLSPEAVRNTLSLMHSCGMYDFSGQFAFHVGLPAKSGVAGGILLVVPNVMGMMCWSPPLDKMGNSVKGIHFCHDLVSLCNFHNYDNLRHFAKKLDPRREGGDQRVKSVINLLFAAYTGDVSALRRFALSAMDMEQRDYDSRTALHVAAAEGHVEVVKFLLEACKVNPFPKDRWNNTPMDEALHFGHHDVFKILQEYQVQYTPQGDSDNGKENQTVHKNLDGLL

These compounds were tested against Glutaminase kidney isoform, mitochondrial (Homo sapiens) (UniProt O94925) (assay: qHTS for Inhibitors of Glutaminase (GLS)). Conditions: GLS enzymatic activity, qHTS titration; at 45.5 µM (top of the series).
On the % scale 0 is the no-effect control and ±100 the full control effect.

SMILES | activity change, negative = inhibition
CC(C)(C)OC(=O)N1CCC(Nc2ccccc2)CC1 | inactive: 22.5%
O=C(O)C1(Nc2ccccc2)CCN(Cc2ccccc2)CC1 | inactive: 44%
NN(c1ccccc1)C1CCN(CCc2ccccc2)CC1 | inactive: -28.3%
CCCOc1ccc(C(=O)NCC2(N(C)C)CCCCC2)cc1 | inactive: 6.8%
O=c1[nH]c2ccccc2n1C1CCN(C(c2cc3ccccc3o2)c2nnnn2C2CCCC2)CC1 (stereo unspecified) | inactive: 18%
CCOc1ncccc1C(=O)NCC1(N2CCOCC2)CCCCC1 | inactive: -6.5%
CN1CCC(Nc2ccc(F)c(Cl)c2)CC1 | inactive: 2.17%
CN1CCC(Nc2ccc(Cl)cc2)CC1 | inactive: 31.2%
COc1cc(C(=O)NCC2(N3CCOCC3)CCCCC2)cc(OC)c1OC | inactive: 13.9%
COc1cccc(C(c2nnnn2C2CCCC2)N2CCC(n3c(=O)[nH]c4ccccc43)CC2)c1OC (stereo unspecified) | inactive: -1.1%
COc1cc(OC)cc(C(=O)NCC2(N3CCOCC3)CCCCC2)c1 | inactive: 8.05%
CCC(CO)(C(=O)OC1CN2CCC1CC2)c1ccccc1 (stereo unspecified) | inactive: -0.391%
Cc1ccc(C(=O)NCC2(N3CCCCC3)CCCCC2)o1 | inactive: 9.17%
Cc1ccc(Nc2c([N+](=O)[O-])cc([N+](=O)[O-])cc2[N+](=O)[O-])cc1 | inactive: -3.39%
Fc1ccccc1NC1CCN(Cc2ccccc2)CC1 | inactive: -1.75%
Cc1ccc(NC2(C#N)CCN(Cc3ccccc3)CC2)cc1 | inactive: 1.03%
CC(=O)N(c1ccccc1)C1CCNCC1 | inactive: -6.35%
COc1cccc(C(c2nnnn2C2CCCCC2)N2CCC(n3c(=O)[nH]c4ccccc43)CC2)c1OC (stereo unspecified) | inactive: 11.1%
CN(C)C1(CNC(=O)c2ccc(C(C)(C)C)cc2)CCCCC1 | inactive: 1.2%
CCC(c1nnnn1C1CCCCC1)N1CCC(n2c(=O)[nH]c3ccccc32)CC1 (stereo unspecified) | inactive: 15.7%
O=c1[nH]c2ccccc2n1C1CCN(C(c2ccnc3ccccc23)c2nnnn2C2CCCCC2)CC1 (stereo unspecified) | inactive: -6.86%
COc1cc(OC)cc(C(=O)NCC2(N3CCCCC3)CCCCC2)c1 | inactive: -5.34%
Cc1ccccc1C(=O)NCC1(N(C)C)CCCCC1 | inactive: 0.915%

SMILES | activity change, negative = inhibition
CC(C)(C)c1ccc(C(=O)NCC2(N3CCOCC3)CCCCC2)cc1 | inactive: 14.3%
O=C(NCC1(N2CCCCC2)CCCCC1)c1ccco1 | inactive: -1.97%
Cn1c(=O)[nH]cc(N(CCCl)CCCl)c1=O | inactive: -3.4%
CN(C)c1ccc(C(=O)NCC2(N3CCCCC3)CCCCC2)cc1 | inactive: 0.621%
Cc1ccccc1NC1(C#N)CCN(Cc2ccccc2)CC1 | inactive: 16.7%
CC(C)(C)n1nnnc1C(c1ccnc2ccccc12)N1CCC(n2c(=O)[nH]c3ccccc32)CC1 (stereo unspecified) | inactive: 5.29%
COc1ccc(C(c2nnnn2C2CCCCC2)N2CCC(n3c(=O)[nH]c4ccccc43)CC2)cc1 (stereo unspecified) | inactive: -0.565%
CCN1CCC(Nc2cccc(F)c2)CC1 | inactive: 1.83%
CCOC(=O)C(CC)C1=NC(C)(C)Cc2ccccc21.O=[N+]([O-])c1cc([N+](=O)[O-])c(O)c([N+](=O)[O-])c1 (stereo unspecified) | inactive: 3.07%
N#Cc1ccc(C(=O)NCC2(N3CCCCC3)CCCCC2)cc1 | inactive: -12%
O=C(NCC1(N2CCOCC2)CCCCC1)c1ccccc1[N+](=O)[O-] | inactive: 5.89%
O=C(NCC1(N2CCOCC2)CCCCC1)c1ccc([N+](=O)[O-])cc1 | inactive: 1.52%
CC(C)(C)OC(=O)N1CCC(N(C(=O)c2ccccc2)c2ccc(Cl)cc2)CC1 | inactive: -9.43%
CC(C)(C)n1nnnc1C(c1cccc2ccccc12)N1CCC(n2c(=O)[nH]c3ccccc32)CC1 (stereo unspecified) | inactive: 1.65%
CN(C)C1(CNC(=O)c2cccc(C#N)c2)CCCCC1 | inactive: 6.77%
c1ccc(CN2CCC(Nc3ccccc3)CC2)cc1 | inactive: 31%
CCCN1CCC(Nc2cc(OC)cc(OC)c2)CC1 | inactive: 5.94%
O=c1[nH]c2ccccc2n1C1CCN(C(c2ccccc2)c2nnnn2C2CCCC2)CC1 (stereo unspecified) | inactive: -1.61%
O=C(NCC1(N2CCOCC2)CCCCC1)c1ccccc1 | inactive: 5.08%
Cc1cc(N(CCCl)CCCl)ccc1C=O | inactive: 3.48%
O=c1[nH]c2ccccc2n1C1CCN(C(c2cccs2)c2nnnn2C2CCCCC2)CC1 (stereo unspecified) | inactive: 3.88%
COc1ccc(C(=O)NCC2(N3CCOCC3)CCCCC2)cc1OC | inactive: 9.33%
O=c1[nH]c2ccccc2n1C1CCN(C(c2ccnc3ccccc23)c2nnnn2C2CCCC2)CC1 (stereo unspecified) | inactive: -8.67%

SMILES | activity change, negative = inhibition
CCCCn1nnnc1C(c1ccccc1)N1CCC(n2c(=O)[nH]c3ccccc32)CC1 (stereo unspecified) | inactive: -1.91%
COc1cc(C(=O)NCC2(N3CCOCC3)CCCCC2)cc(OC)c1C | inactive: 12.9%
O=C(NCC1(N2CCOCC2)CCCCC1)c1cc(Br)ccc1Cl | inactive: 12.1%
O=C(OC1CN2CCC1CC2)C1c2ccccc2C=Cc2ccccc21 (stereo unspecified) | inactive: -1.67%
CCc1cc(C(=O)NCC2(N3CCCCC3)CCCCC2)sc1C | inactive: 7.36%
O=C(O)c1cccc(Nc2c([N+](=O)[O-])cc([N+](=O)[O-])cc2[N+](=O)[O-])c1 | inactive: -0.73%
O=c1[nH]c2ccccc2n1C1CCN(C(c2cccs2)c2nnnn2C2CCCC2)CC1 (stereo unspecified) | inactive: 13%
CCCCn1nnnc1C(c1cccc(OC)c1OC)N1CCC(n2c(=O)[nH]c3ccccc32)CC1 (stereo unspecified) | inactive: 1.64%
COc1cccc(C(c2nnnn2C(C)(C)C)N2CCC(n3c(=O)[nH]c4ccccc43)CC2)c1OC (stereo unspecified) | inactive: 10.1%
CCOC(=O)N1CCC(Nc2ccc(C)cc2)CC1 | inactive: 4.55%
N/C(=N\O)c1c(N)no[n+]1[O-] | inactive: 19.2%
COc1cc(OC)c(C(=O)NCC2(N(C)C)CCCCC2)cc1OC | inactive: -11.5%
O=C(NCC1(N2CCOCC2)CCCCC1)c1cc(F)c(F)cc1Cl | inactive: 21.1%
CCC(c1nnnn1C(C)(C)C)N1CCC(n2c(=O)[nH]c3ccccc32)CC1 (stereo unspecified) | inactive: 2.02%
CCCCn1nnnc1C(c1ccnc2ccccc12)N1CCC(n2c(=O)[nH]c3ccccc32)CC1 (stereo unspecified) | inactive: -5.09%
CC(C)c1ccc(NC2CCN(C(=O)OC(C)(C)C)CC2)cc1 | inactive: 0%
CCCCn1nnnc1C(c1ccccc1OC(F)(F)F)N1CCC(n2c(=O)[nH]c3ccccc32)CC1 (stereo unspecified) | inactive: -7.03%
COc1ccc(CN(CCCl)CCCl)cc1Cl | inactive: -0.945%
O=[N+]([O-])c1cc([N+](=O)[O-])c(OC2CCCCC2O)c([N+](=O)[O-])c1 (stereo unspecified) | inactive: -10.1%
CN(C)c1cccc(C(=O)NCC2(N3CCCCC3)CCCCC2)c1 | inactive: 9.49%
O=[N+]([O-])c1cc([N+](=O)[O-])c(Nc2ccc(Cl)cc2)c([N+](=O)[O-])c1 | inactive: 10.9%
COc1ccc(C(c2nnnn2C2CCCC2)N2CCC(n3c(=O)[nH]c4ccccc43)CC2)cc1 (stereo unspecified) | inactive: -9.41%
Cc1ccc(C(=O)NCC2(N(C)C)CCCCC2)o1 | inactive: 1.28%

SMILES | activity change, negative = inhibition
CCCCOc1ccccc1C(=O)NCC1(N2CCOCC2)CCCCC1 | inactive: 9.44%
CCCOc1ccc(C(=O)NCC2(N(C)C)CCCCC2)cc1OC | inactive: 2.84%
O=C(NCC1(N2CCOCC2)CCCCC1)c1ccccc1Br | inactive: 15.1%
O=C(OC1CN2CCC1CC2)c1ccc([N+](=O)[O-])cc1 (stereo unspecified) | inactive: -0.435%
O=C(NCC1(N2CCCCC2)CCCCC1)c1cncc(Br)c1 | inactive: 10.4%
COc1ccc2c(c1O)-c1c(O)c(OC)cc3c1[C@H](C2)[N+](C)(C)CC3.O=[N+]([O-])c1cc([N+](=O)[O-])c([O-])c([N+](=O)[O-])c1[O-] | inactive: 38.8%
CN1CCC(Nc2cccc(F)c2)CC1 | inactive: 20.3%
CCN1CCC(Nc2ccc(Cl)cc2)CC1 | inactive: 12%
N#CC1(Nc2ccccc2)CCN(CCc2ccccc2)CC1 | inactive: -2.67%
O=c1[nH]c2ccccc2n1C1CCN(C(c2ccccc2OC(F)(F)F)c2nnnn2C2CCCC2)CC1 (stereo unspecified) | inactive: -5.02%
CSc1ccc(C(=O)NCC2(N3CCOCC3)CCCCC2)cc1 | inactive: 20%
O=C(NCC1(N2CCCCC2)CCCCC1)c1cccc([N+](=O)[O-])c1 | inactive: 2.26%
CCOc1ccc(C(=O)NCC2(N3CCOCC3)CCCCC2)cc1 | inactive: 17.4%
CC(C)(C)n1nnnc1C(c1ccccc1OC(F)(F)F)N1CCC(n2c(=O)[nH]c3ccccc32)CC1 (stereo unspecified) | inactive: 10.3%
O=C(NCC1(N2CCCCC2)CCCCC1)c1ccc(OC(F)F)cc1 | inactive: 1.13%
COc1cc(C(=O)NCC2(N3CCCCC3)CCCCC2)ccc1OC(F)F | inactive: -22.9%
O=C(NCC1(N2CCOCC2)CCCCC1)c1cc(=O)[nH]c2ccccc12 | inactive: 15.5%
CCCCn1nnnc1C(c1cccc2ccccc12)N1CCC(n2c(=O)[nH]c3ccccc32)CC1 (stereo unspecified) | inactive: 6.4%
CN1CCN(CCOC(=O)C(O)(c2ccccc2)c2ccccc2)CC1 | inactive: 6.89%
COc1ccc(NC2CCN(C(=O)OC(C)(C)C)CC2)cc1 | inactive: 2.26%
CC(C)c1ccc(C(=O)NCC2(N3CCOCC3)CCCCC2)cc1 | inactive: 17.2%
O=[N+]([O-])c1cc([N+](=O)[O-])c(NCC2CCS(=O)(=O)C2)c([N+](=O)[O-])c1 (stereo unspecified) | inactive: 2.4%
